## Antibody variant affinities, Ab-14 heavy chain, assay 1

Target peptide (SARS-CoV-2 spike, HR2 region): PDVDLGDISGINAS

The variants keep the light chain, the linker and the frameworks of Ab-14 (scFv order VH, a (GGGGS)3 linker, VL).
VH: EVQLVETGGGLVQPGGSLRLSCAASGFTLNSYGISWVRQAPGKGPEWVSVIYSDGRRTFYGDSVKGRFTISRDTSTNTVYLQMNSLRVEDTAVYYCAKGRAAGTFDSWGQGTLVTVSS
VL: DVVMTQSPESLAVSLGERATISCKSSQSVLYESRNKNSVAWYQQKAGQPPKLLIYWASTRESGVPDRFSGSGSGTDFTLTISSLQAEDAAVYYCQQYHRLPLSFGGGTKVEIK

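The starting antibody came from a phage panning campaign against this peptide. Variants in AAYL49 differ from the parent at up to three CDR positions; double and triple changes were sampled at random. AlphaSeq pools MATa yeast showing the antibodies with MATalpha yeast showing the peptide. After mating in shaken culture at 30 °C for 16 h, diploids were selected and their barcode pairs sequenced. A regression on co-assayed BCL2-family reference pairs converts the normalised counts of each replicate to an apparent Kd. Mating was done three times.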

Substitutions are numbered in sequence along the VH above, starting at 1 (not Kabat).
Values are log10 of the apparent Kd in nM; lower means stronger binding.
"n.d." means that the variant was in the library but no mating with the target was seen in that replicate; the authors take this as a sign of poor binding, and no number exists.
Background: pairings of library AAYL49 with three empty control strains gave a value in 15% of cases (median 4.06, 5th percentile 2.83). Values in that range, when seen in few replicates, are hard to tell from nonspecific mating. Also given: how often the same scFv was detected with the empty control strains, with their mean in brackets.

| changes | log10 Kd (nM) by replicate | control signals |
|---|---|---|
| F27V+S53Y+R100L | 3.45 / 4.23 / n.d. | 1 of 9 (4.05) |
| D54F+R56Y+R100Q | n.d. / n.d. / n.d. | 1 of 9 (3.61) |
| K65L+R100T+G103W | 2.34 / 1.92 / 2.07 | 4 of 9 (3.61) |
| F59Q+Y60Q+A102K | n.d. / n.d. / 4.17 | 0 of 9 |
| V50R+S63P+S107T | 3.37 / n.d. / 4.84 | 5 of 9 (4.35) |
| G55Y+R100C | 4.06 / 3.94 / 5.03 | 4 of 9 (4.42) |
| T28K+Y52A+F59N | 3.09 / n.d. / n.d. | 0 of 9 |
| Y32K+A101W+F105T | n.d. / n.d. / n.d. | 0 of 9 |
| S31C+Y52S+S107N | n.d. / n.d. / n.d. | 0 of 9 |
| R100D+A102I+D106I | 5.69 / 4.39 / n.d. | 2 of 9 (3.81) |
| I51P+Y52R+G55D | n.d. / n.d. / 3.49 | 2 of 9 (3.81) |
| S31R+G33W+V50W | n.d. / n.d. / n.d. | 0 of 9 |
| L29E+S35A+G99L | n.d. / n.d. / n.d. | 0 of 9 |
| G99H | 3.76 / n.d. / n.d. | 4 of 9 (4.61) |
| D62Y+A102G+T104W | 6.14 / 3.73 / n.d. | 6 of 9 (3.97) |
| S53C+R56G+G99I | n.d. / n.d. / 4.79 | 5 of 9 (4.20) |
| S31P+I51P+F105G | n.d. / 4.16 / 3.42 | 0 of 9 |
| S31G+G99S+R100A | n.d. / 4.78 / n.d. | 3 of 9 (4.13) |
| S31K+Y60R+G103A | n.d. / 3.65 / n.d. | 5 of 9 (4.49) |
| Y52H+G55C+S107Q | n.d. / n.d. / n.d. | 2 of 9 (3.70) |
| G26N+N30R+G33E | 3.95 / n.d. / n.d. | 3 of 9 (5.43) |
| G33W+I34E+F105S | 3.90 / 5.30 / 4.76 | 2 of 9 (4.12) |
| V64M+R100L+A102G | n.d. / n.d. / n.d. | 1 of 9 (2.96) |
| T104A+D106W+S107T | n.d. / n.d. / n.d. | 0 of 9 |
| G26N+L29P+S31L | 3.54 / n.d. / n.d. | 2 of 9 (3.72) |
| L29W+Y52N+T104S | 3.32 / 4.76 / 3.30 | 3 of 9 (3.89) |
| V64C+G99P+A102V | n.d. / 3.89 / n.d. | 1 of 9 (3.68) |
| D62C | 3.51 / 2.54 / n.d. | 2 of 9 (3.75) |
| I34Q+G61V+F105G | n.d. / n.d. / 4.22 | 5 of 9 (3.83) |
| S31F+R56K+T104K | 4.57 / 4.10 / 3.57 | 5 of 9 (4.45) |
| F27Q+L29C+N30D | 3.91 / 3.60 / n.d. | 1 of 9 (3.47) |
| S31Y+Y32G+F59D | n.d. / n.d. / n.d. | 0 of 9 |
| I34S+D62Y+V64T | n.d. / n.d. / n.d. | 1 of 9 (3.62) |

Repeated from above, the 5 best binders with a signal in all replicates:

| changes | log10 Kd (nM) by replicate | control signals |
|---|---|---|
| K65L+R100T+G103W | 2.34 / 1.92 / 2.07 | 4 of 9 (3.61) |
| L29W+Y52N+T104S | 3.32 / 4.76 / 3.30 | 3 of 9 (3.89) |
| S31F+R56K+T104K | 4.57 / 4.10 / 3.57 | 5 of 9 (4.45) |
| G55Y+R100C | 4.06 / 3.94 / 5.03 | 4 of 9 (4.42) |
| G33W+I34E+F105S | 3.90 / 5.30 / 4.76 | 2 of 9 (4.12) |

Source: Engelhart et al. 2022 (doi:10.1038/s41597-022-01779-4), MIT Lincoln Laboratory and A-Alpha Bio; data file from the FLAb repository.